Reference: patent US12329765B2, “Targeted nanoparticle for the treatment of traumatic brain injury and other CNS diseases” (priority 2021, dated 2025)

System: liver, kidneys, lungs, and spleen
Conditions: versus untreated control/blast groups

Question: With `CN(C)c1ccc(O)c2c1C[C@H]1C[C@H]3[C@H](N(C)C)C(O)=C(C(N)=O)C(=O)[C@@]3(O)C(O)=C1C2=O` [minocycline, Minocycline] as the molecule, how does the “histopathology of liver, kidneys, lungs and spleen (H&E)” value read?
Answer: Its value is “no abnormal histopathological findings; also recorded: no abnormal histopathological changes or lesions”.

Entries after “also recorded” stand apart in the source; their conditions may differ.
